What was measured:
[1] = Assay 1: radiolytic reduction of prodrug in formate buffer (or other solution), products analysed by HPLC; conditions: prodrug 50 μM in sodium formate pH 7.0, anoxic, cobalt-60
SKOV3 cells = assay: Cytotoxicity against SKOV3 cells, 4 hr aerobic exposure; format: cell-based, human; conditions: read-out: IC50, P (unirradiated prodrug); SKOV3, 4 hr aerobic exposure; mean ± SEM
UV4 cells = assay: Cytotoxicity against UV4 cells, 4 hr aerobic exposure; format: cell-based; conditions: read-out: IC50, P (unirradiated prodrug); UV4, 4 hr aerobic exposure; mean ± SEM

Molecule	G(+E), anoxic, Assay 1 (yield of effector) [1]	IC50 (SKOV3 cells)	IC50 (UV4 cells)
Cc1cccc2c(N)c3cccc(C(=O)NCC[N+](C)(C)Cc4ccc([N+](=O)[O-])cc4)c3nc12 [Compound 17, 2-[N-(9-amino-5-methylacridin-4-yl)carbonyl]aminoethyl-(dimethyl)-4-nitrobenzylammonium bromide]	0.034 μM/Gy		
C[N+](C)(CCNC(=O)c1cccc2cc3ccccc3nc12)Cc1ccc([N+](=O)[O-])s1 [Compound 16, 2-[N-(acridin-4-yl)carbonyl]aminoethyl-(dimethyl)-(5-nitro-2-thienyl)methylammonium chloride]	0.19 μM/Gy		
C[N+](C)(CCNC(=O)c1cccc2cc3ccccc3nc12)Cc1ccc([N+](=O)[O-])cc1 [Compound 15, 2-[N-(acridin-4-yl)carbonyl]aminoethyl-(dimethyl)-4-nitrobenzylammonium bromide]	0.072 μM/Gy		
bis(3-methyl-2,4-pentanedionato)(N-[3-[(2-aminoethyl)-amino]propyl]acridine-4-carboxamide)cobalt(III) perchlorate	0.8 μM/Gy	74 µM	31 µM
